Measured values: patent US10072025B2, “Ethyl N-boc piperidinyl pyrazolo pyridones as Janus kinase inhibitors” (Merck Sharp & Dohme Corp., priority 2014, dated 2018)

By UniProt entry, the sequences of proteins in these tests, tags left out. Residues count along the entry.
UniProt P23458, 875-1153: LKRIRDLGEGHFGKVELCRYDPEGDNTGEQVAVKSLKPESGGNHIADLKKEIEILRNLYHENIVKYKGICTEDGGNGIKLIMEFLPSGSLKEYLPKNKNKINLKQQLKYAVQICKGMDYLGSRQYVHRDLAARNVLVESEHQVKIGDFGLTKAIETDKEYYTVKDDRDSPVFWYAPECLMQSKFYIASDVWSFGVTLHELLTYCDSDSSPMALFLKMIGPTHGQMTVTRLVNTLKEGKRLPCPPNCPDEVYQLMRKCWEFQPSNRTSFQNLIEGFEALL
UniProt O60674, 849-1124: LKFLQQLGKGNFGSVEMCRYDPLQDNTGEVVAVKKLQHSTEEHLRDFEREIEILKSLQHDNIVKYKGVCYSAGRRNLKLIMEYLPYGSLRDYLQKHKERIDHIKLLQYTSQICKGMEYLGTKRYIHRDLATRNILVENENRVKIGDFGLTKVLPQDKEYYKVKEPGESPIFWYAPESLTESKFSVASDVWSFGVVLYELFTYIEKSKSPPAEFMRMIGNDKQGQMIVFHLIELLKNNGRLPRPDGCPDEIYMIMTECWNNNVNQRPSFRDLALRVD

Tests used:
JAK1 = JAK1 (Homo sapiens (Human), UniProt P23458); experiment: Jak Biochemical HTRF Assay (JAK1); settings: JAK1 IC50 (nM)
Description: (§1) Jak Biochemical HTRF Assay Protocol
(§2) The ability of compounds to inhibit the activity of JAK1, JAK2, JAK3, and Tyk2 was measured using a recombinant purified GST-tagged catalytic domain for each enzyme (Invitrogen JAK1 #M4290, JAK2 #M4290, JAK3 #M4290, Tyk2 #M4290) in an HTRF format biochemical assay. […] The basic assay protocol is as follows: First, 250 nL of diluted compounds in DMSO were dispensed into the wells of a dry 384-well Black plate (Greiner #781076) using a Labcyte Echo 555 acoustic dispenser. Subsequent reagent additions employed an Agilent Bravo. Next, 18 μL of 1.11× enzyme and 1.11× substrate in 1× assay buffer (Invitrogen kinase buffer # PV3189, 2 mM DTT, 0.05% BSA) were added to the wells and shaken and then preincubated for 30 minutes at room temperature to allow compound binding to equilibrate. After equilibration, 2 μL of 10×ATP in 1× assay buffer was added to initiate the kinase reaction and the plates were shaken and then incubated at room temperature for 120 minutes. […] Plates were shaken and centrifuged and then incubated 60 minutes at room temperature and then read on a Perkin Elmer Envision (Xex=337 nm, λem=665 and 615 nm, TRF delay time=20 μs). HTRF signal=10,000*665 nm reading/615 nm reading. After normalization to untreated controls, the percent inhibition of the HTRF signal at each compound concentration was calculated. […]

JAK2 = JAK2 (Homo sapiens (Human), UniProt O60674); experiment: Jak Biochemical HTRF Assay (JAK2); settings: JAK2 IC50 (nM)
Description: as §1, §2

Row | SMILES | IC50 (JAK1) [nM] | IC50 (JAK2) [nM]
1 | CCC1(n2nc(Nc3ccc(C(=O)N4CCOCC4CC(C)C)c(C)c3)c3c(=O)[nH]ccc32)CCN(C(=O)OC(C)(C)C)CC1 (single isomer, unassigned) [Example 3-17, tert-butyl 4-ethyl-4-{3-[(3-methyl-4-{[3-(2S or 2R-methylpropyl)morpholin-4-yl]carbonyl}phenyl)amino]-4-oxo-4,5-dihydro-1H-pyrazolo [4,3-c]pyridin-1-yl} piperidine-1-carboxylate] | 5.33 | 3.92
2 | CCC1(n2nc(Nc3ccc(C(=O)N4CCOCC4CC(C)C)c(C)c3)c3c(=O)[nH]ccc32)CCN(C(=O)OC(C)(C)C)CC1 (single isomer, unassigned) [Example 3-18, tert-butyl 4-ethyl-4-{3-[(3-methyl-4-{[3-(2S or 2R-methylpropyl)morpholin-4-yl]carbonyl}phenyl)amino]-4-oxo-4,5-dihydro-1H-pyrazolo[4,3-c]pyridin-1-yl} piperidine-1-carboxylate] | 5.45 | 4.77
